This is an account of results in patent publication US20040097421A1 (priority 2000, published 2004).

The test system of one experiment is CEM/R. Briefly: FMCA cell line panel, CEM/R. It counts as cell-based, human. The conditions noted are these: read-out: IC50 (μM), CEM/R, 72 hours.
For experiment [1], the system named is primary cultures of human tumor cells from patients (PHTC), total. The experiment in a line: FMCA, 31 PHTC cultures, Test 4, total. It counts as cell-based. The conditions noted are these: 10 μM.
Experiment [2] deals with panel of ten human tumour cell lines. The experiment in a line: FMCA cell line panel, mean of ten lines. It counts as cell-based. The note with it: mean over the ten cell lines.
The test system of experiment [3] is 8226LR5 (melphalan resistance subline). The experiment in a line: FMCA cell line panel, 8226LR5. It is filed as cell-based, human. The conditions noted are these: read-out: IC50 (μM), 8226LR5, 72 hours.
Experiment [4] has as its system U937vcr (vincristine resistance subline). The experiment in a line: FMCA cell line panel, U937vcr. It counts as cell-based, human. The conditions noted are these: read-out: IC50 (μM), U937vcr, 72 hours.
The subject of experiment [5] is 8226Dox40 (doxorubicin resistance subline). Briefly: FMCA cell line panel, 8226Dox40. It counts as cell-based, human. The note with it: read-out: IC50 (μM), 8226Dox40, 72 hours.
For experiment [6], the system named is hematological tumors, primary cultures of human tumor cells from patients (PHTC). The experiment in a line: FMCA, 31 PHTC cultures, Test 4, hematological tumors. It is filed as cell-based. The conditions noted are these: 10 μM.
Experiment [7] has as its system U937gtb (lymphoma U-937 GBT). The experiment in a line: FMCA cell line panel, U937gtb. It is filed as cell-based, human. The note with it: read-out: IC50 (μM), U937gtb, 72 hours.
Experiment [8] has as its system 8226S (myeloma RPMI 8226). Briefly: FMCA cell line panel, 8226S. The conditions noted are these: read-out: IC50 (μM), 8226S, 72 hours. It is filed as cell-based, human.
Experiment [9] relates to solid tumors, primary cultures of human tumor cells from patients (PHTC). Briefly: FMCA, 31 PHTC cultures, Test 4, solid tumors. It counts as cell-based. The note with it: 10 μM.
Experiment [10] has as its system ACHN (renal carcinoma, primary resistant). Briefly: FMCA cell line panel, ACHN. It is filed as cell-based, human. The note with it: read-out: IC50 (μM), ACHN, 72 hours.
Experiment [11] has as its system H69 (small cell lung cancer NCI-H69). The experiment in a line: FMCA cell line panel, H69. It is filed as cell-based, human. The conditions noted are these: read-out: IC50 (μM), H69, 72 hours.
Experiment [12] relates to H69AR (doxorubicin resistance subline). The experiment in a line: FMCA cell line panel, H69AR. It counts as cell-based, human. The note with it: read-out: IC50 (μM), H69AR, 72 hours.
In experiment [13] the test system is CEM/S (leukemia CCRF-CEM). Briefly: FMCA cell line panel, CEM/S. It counts as cell-based, human. The conditions noted are these: read-out: IC50 (μM), CEM/S, 72 hours.

SMILES strings stand for the structures.

Turning to `N[C@@H](Cc1cccc(N(CCCl)CCCl)c1)C(=O)O`, the IC50 came out at 1.7 µM in the experiment on CEM/R; 31.9 µM in experiment [3]; 6.64 µM in experiment [4]; 41.4 µM in [5]; 3.78 µM in [7]; 30.4 µM in experiment [8]. Besides, the IC50 worked out at 390 µM in experiment [10], 41.1 µM in [11], 61.4 µM in experiment [12] and 2.54 µM in experiment [13]. Moreover, in experiment [1], the “Tumor cell survival index (%), Total n = 19-31” value stood at 76.2%. Moreover, the “IC50 (μM), MEAN” value in experiment [2] was found to be 61.09 µM. The “Tumor cell survival index (%), Hematological tumors n = 7-11” value in experiment [6] is 47.1%. Moreover, the “Tumor cell survival index (%), Solid tumors n = 12-20” value in [9] was 93.2%.
